Source: PubChem (National Center for Advancing Translational Sciences (NCATS))
Sfp inh – qHTS Assay for Inhibitors of Bacillus subtilis Sfp phosphopantetheinyl transferase (PPTase). 310,000 compounds, 3.5% hits. 4'-phosphopantetheinyl transferase ffp (Bacillus subtilis), Q9F4F7. Biochemical Sfp PPTase activity, qHTS. Potency, µM, inactives show max response, negative = inhibition, usual class: inhibitors; active = well fitted inhibition curve with a large enough effect; inconclusive = small, poorly fitted or top-dose-only effect, or another doubt; inactive = no such curve, though single readings can be large or run the other way;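 note: the enzyme is Sfp with the accession as filed and its product quenches rhodamine fluorescence; potency is the fitted concentration of half-maximal effect; 0% = enzyme reaction without inhibitor and -100% = no enzyme wells; top concentration of the series not given in the record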
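With Hepes-Na pH 7.6 buffer containing 10 mM MgCl2, Sfp (15 nM) modified BHQ-2-YbbR (12.5 uM) using rhodamine-CoA (5 uM). Two reads 30 minutes apart at 525/598 nm yielded each well's rate.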
miR-21 reporter – raises the signal of a miR-21 reporter | HeLa miR-21 FLuc reporter, luciferase, 48 h | Potency, µM (highest dose often 38.3 µM), for inactives: at the highest dose reporter change, positive = more light | 340,000 tested, under 10 active | AID 2288; active = well fitted rising curve with a large enough effect; inconclusive = small, poorly fitted or top-dose-only effect; inactive = no such curve, though single readings can be large or run the other way;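 also: % of control where 0% means no effect; miR-21 action dims this reporter so a rising signal means less miR-21 action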
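Compounds were titrated across several concentrations (up to approximately 40 uM) and incubated 48 hours with HeLa miR-21-FLuc reporter cells (miR-21 target sequence downstream of FLuc, endogenous miR-21). Readout was firefly luciferase luminescence after lytic detection reagent.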
Lamin A splicing – modulators of lamin A splicing. HeLa LMNA splicing GFP/RFP minigene ratio, 48 h. 0.01% of 200,000 active. AID 1487. Potency, µM (titrated, usually from 46.1 µM), without a hit: top-dose ratio change, negative = inhibition, actives largely listed as inhibitors; active means well fitted inhibition curve with a large enough effect in the signal ratio, with a control signal flat, not every such curve was filed as active; inconclusive means small, poorly fitted or top-dose-only effect, or effect the other way, or a change in a side signal; the % refers to the signal ratio; further: potency means the concentration at half of the fitted maximal effect; on the % scale 0 is the no-effect control and ±100 the full control effect
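Read-out is the ratio of GFP to DsRed2 object intensity, acquired by 488 nm laser-scanning cytometry on HeLa lamin A-EGFP minigene reporter cells. Compound incubation 48 hrs at 37 °C in Opti-MEM with 2% FBS; DMSO 0.5% final.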
KDM4E inh – inhibitors of human JMJD2E histone demethylase; JMJD2E catalytic domain, FDH-coupled NADH fluorescence (FDH is formaldehyde dehydrogenase); Potency, µM (titrated, usually from 57.1 µM), without a hit: top-dose activity change, negative = inhibition, most hits filed as inhibitors; 1.6% of 230,000 active; active means well fitted inhibition curve with a large enough effect, not every such curve was filed as active; inconclusive means small, poorly fitted or top-dose-only effect, or another doubt; inactive means no such curve, though single readings can be large or run the other way;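 further: potency means the concentration at half of the fitted maximal effect; 0% = wells with enzyme and -100% = buffer wells without enzyme; nearly all actives have a fitted effect of over 50% in size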
G9a inh – blocks human histone lysine methyltransferase G9a. 8.8% of 350,000 active. AID 504332. G9a H3K9 monomethylation, AlphaScreen, 2 h. Potency, µM (top dose mostly 102 µM), inactives show at the top dose activity, negative = inhibition, usual class: inhibitors; further: potency means the concentration at half of the fitted maximal effect; on the % scale 0 is the no-effect control and ±100 the full control effect; nearly all actives have a fitted effect of over 75% in size
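Methyltransferase reactions run at room temperature for 2 h (20 nM enzyme, 500 nM biotin-H3K9 peptide, 20 uM SAM) after a 15 min compound preincubation; product detected by AlphaScreen beads and anti-H3K9me1 antibody.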
ALDH1A1 inh – ALDH1A1 (human) enzyme inhibition; P00352; Purified ALDH1A1, NADH fluorescence, propionaldehyde substrate; Potency, µM (titrated, usually from 75.3 µM), for the others: at the highest dose activity, negative = inhibition, most hits filed as inhibitors; 7.3% of 220,000 active; active means well fitted inhibition curve with a large enough effect, not every such curve was filed as active; inconclusive means small, poorly fitted or top-dose-only effect, or another doubt; inactive means no such curve, though single readings can be large or run the other way;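 further: potency means the concentration at half of the fitted maximal effect; plate controls were no enzyme wells and a reference inhibitor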
An asterisk follows results filed as active; ? = inconclusive; / = no result given; [ ] = dose if it differs, or a comment. Shown are actives, neighbours in structure and some others; about 13% of the full set was active somewhere. Unless noted, the call rests on the fitted dose curve; in most records, active means well fitted curve in the direction sought with a large enough effect; inconclusive means small, poorly fitted or top-dose-only effect, or another doubt; inactive means no such curve, though single readings can be large; an effect the other way counts as inactive or inconclusive.

(1) CCN(CC(=O)NCc1ccc(Cl)cc1)C(=O)COc1ccc(Cl)cc1Br
(2) COc1ccc(N=Cc2c(O)n(-c3cccc(C)n3)c(=O)c3ccccc23)c(OC)c1
(3) O=C(Oc1cccccc1=O)c1ccccc1
(4) CCCSc1ncc(Cl)c(C(=O)Nc2ccc(S(=O)(=O)N3CCCCC3C)cc2)n1 (configuration not stated)
(5) Cc1cccc(NS(=O)(=O)c2ccc3[nH]c4c(c3c2)CCCCCC4)c1
(6) O=S(=O)(Nc1cccc(Cl)c1)c1ccc2[nH]c3c(c2c1)CCCCCC3

| Assay by compound | 1 | 2 | 3 | 4 | 5 | 6 |
| --- | --- | --- | --- | --- | --- | --- |
| Sfp inh | / | 16% | 25µM* | / | / | / |
| miR-21 reporter | / | -1% | 20% | ? | 14% | ? |
| Lamin A splicing | / | / | ? | / | ? | ? |
| KDM4E inh | / | 5% | -5% | / | / | / |
| G9a inh | -41% | 8% | 25µM* | -15%[59 µM] | 16µM* | -9%[59 µM] |
| ALDH1A1 inh | / | / | -2% | / | / | / |

(7) CC(=O)c1cccc(NS(=O)(=O)c2ccc3[nH]c4c(c3c2)CCCCCC4)c1
(8) CCOC(=O)c1cccc(NS(=O)(=O)c2ccc3[nH]c4c(c3c2)CCCC4)c1
(9) CC(=O)c1cccc(NS(=O)(=O)c2ccc3[nH]c4c(c3c2)CCCCC4)c1
(10) O=C(NCCCc1nc2ccccc2n1Cc1cccc(Cl)c1)c1ccco1
(11) C[N+](C)(C)CCO
(12) Cc1ccc(-c2cc(C(=O)Nc3c(C(=O)c4ccccc4)oc4ccccc34)no2)cc1F

| Assay by compound | 7 | 8 | 9 | 10 | 11 | 12 |
| --- | --- | --- | --- | --- | --- | --- |
| Sfp inh | / | / | / | / | -10% | / |
| miR-21 reporter | 9% | 20% | ? | -1% | / | -2% |
| Lamin A splicing | -4%[46 µM] | ? | -24%[46 µM] | / | / | / |
| KDM4E inh | / | / | / | / | -3% | / |
| G9a inh | ? | 14µM* | 16µM* | -39%[59 µM] | 22%[12.7 µM] | ? |
| ALDH1A1 inh | / | / | / | / | -5% | / |

(13) CCN(CC)CCNC(=O)c1[nH]c2ccccc2c1Sc1ccc(Cl)cc1
(14) COc1ccc2cccc(N3CCN(CCNC(=O)c4ccc(F)cc4)CC3)c2c1
(15) CSc1ccc(CCNC(=O)c2cc3cc(S(=O)(=O)N4CCCCC4)ccc3n2C)cc1
(16) O=C(Nc1nonc1NC(=O)c1cccs1)c1cccs1
(17) COc1ccc(C(c2c(O)nc(SC)n(C)c2=O)c2c(O)nc(SC)n(C)c2=O)cc1O
(18) O=C(CCc1ccc(S(=O)(=O)N2CCOCC2)cc1)OCc1nc2ccccc2s1

| Assay by compound | 13 | 14 | 15 | 16 | 17 | 18 |
| --- | --- | --- | --- | --- | --- | --- |
| Sfp inh | / | -12% | / | 11% | 50µM* | 1% |
| miR-21 reporter | -1% | / | 18% | 26% | -5% | -45% |
| Lamin A splicing | / | / | ? | / | 1% | ? |
| KDM4E inh | / | ? | / | 5% | -5% | -4% |
| G9a inh | -25%[59 µM] | / | 6%[59 µM] | ? | 16µM* | 3%[59 µM] |
| ALDH1A1 inh | / | ? | / | 0% | 14µM* | 7.9µM* |

(19) COc1ccccc1C(=O)NCCNC(=O)c1ccco1
(20) O=C(CNC(=O)Cc1ccccc1)NCC(=O)OCC(=O)c1cccc2ccccc12
(21) CCCC/C=C/C(NC(=O)c1ccco1)c1ccccc1 (configuration not stated)
(22) O=C(NCCNC(=O)c1ccccc1Cl)c1ccco1
(23) O=C(Nc1ccccc1C(=O)NCCN1CCOCC1)c1ccco1
(24) CCCC/C=C/C(NC(=O)c1ccccc1)c1ccccc1 (configuration not stated)

| Assay by compound | 19 | 20 | 21 | 22 | 23 | 24 |
| --- | --- | --- | --- | --- | --- | --- |
| Sfp inh | 7% | 9% | 4% | 15% | 15% | 30% |
| miR-21 reporter | -13% | -3% | / | 2% | -6% | / |
| Lamin A splicing | 7% | 6% | / | / | -11% | / |
| KDM4E inh | 2% | -18% | ? | / | 10% | 4% |
| G9a inh | -7%[59 µM] | 23%[12.7 µM] | / | 50µM* | 50µM* | / |
| ALDH1A1 inh | 10% | ? | 3.5µM* | / | ? | ? |

A different layout for 2 compounds above.
entry	SMILES	Sfp inh	miR-21 reporter	Lamin A splicing	KDM4E inh	G9a inh	ALDH1A1 inh
3	O=C(Oc1cccccc1=O)c1ccccc1	25µM*	20%	?	-5%	25µM*	-2%
4	CCCSc1ncc(Cl)c(C(=O)Nc2ccc(S(=O)(=O)N3CCCCC3C)cc2)n1 (configuration not stated)	/	?	/	/	-15%[59 µM]	/

Arranged by value in miR-21 reporter (lowest first): three of the compounds above
| No. | SMILES | miR-21 reporter |
| --- | --- | --- |
| 19 | COc1ccccc1C(=O)NCCNC(=O)c1ccco1 | -13% |
| 23 | O=C(Nc1ccccc1C(=O)NCCN1CCOCC1)c1ccco1 | -6% |
| 20 | O=C(CNC(=O)Cc1ccccc1)NCC(=O)OCC(=O)c1cccc2ccccc12 | -3% |

Following part.
(25) O=C(CNC(=O)c1ccco1)OCC(=O)c1cccc2ccccc12
(26) COc1ccc(/C=C/C2=CC3(C)CC2(C)C(c2ccc(OC)cc2)CC3=O)cc1 (configuration not stated)
(27) COc1cccc(CSc2nc(-c3ccccc3F)nc3c2Cc2c(CO)cnc(C)c2O3)c1
(28) Cc1ccc(CNC(=O)Cc2coc3cc(C)cc(C)c23)cc1
(29) O=C(NCCNC(=O)C(c1ccccc1)c1ccccc1)c1ccco1
(30) O=C(NCCc1ccccc1)c1ccco1

| Assay by compound | 25 | 26 | 27 | 28 | 29 | 30 |
| --- | --- | --- | --- | --- | --- | --- |
| Sfp inh | -6% | -24% | / | / | 6% | 1% |
| miR-21 reporter | -5% | / | -1% | -10% | -8% | -48% |
| Lamin A splicing | 9% | / | / | / | -7% | 4% |
| KDM4E inh | -3% | / | / | / | 2% | -9% |
| G9a inh | -11%[59 µM] | / | -5%[59 µM] | 5%[59 µM] | -29%[12.7 µM] | -3%[59 µM] |
| ALDH1A1 inh | 22µM* | -1%[13.5 µM] | / | / | 40µM* | -3% |
